The values below are quoted from earlier work in article PMC11390321 (Cancer chemotherapy and pharmacology, 2024).

For the data set the following is noted: tumor-bearing mice, orally administered; cited from earlier work.

Structures are written as SMILES.

Consider `C[C@@H]1COCCN1c1cc(-c2ccnn2C)c2ccnc(-c3ccn[nH]3)c2n1` [elimusertib], for which the “bone marrow exposure relative to plasma” value is given as 2.65 fold.
